Measured values: ChEMBL document CHEMBL1127489, “Synthesis of novel N-phosphonoalkyl dipeptide inhibitors of human collagenase” (J Med Chem, 1994)

Target: T1, Interstitial collagenase (Homo sapiens, UniProt P03956)
T1 sequence (P03956 whole entry): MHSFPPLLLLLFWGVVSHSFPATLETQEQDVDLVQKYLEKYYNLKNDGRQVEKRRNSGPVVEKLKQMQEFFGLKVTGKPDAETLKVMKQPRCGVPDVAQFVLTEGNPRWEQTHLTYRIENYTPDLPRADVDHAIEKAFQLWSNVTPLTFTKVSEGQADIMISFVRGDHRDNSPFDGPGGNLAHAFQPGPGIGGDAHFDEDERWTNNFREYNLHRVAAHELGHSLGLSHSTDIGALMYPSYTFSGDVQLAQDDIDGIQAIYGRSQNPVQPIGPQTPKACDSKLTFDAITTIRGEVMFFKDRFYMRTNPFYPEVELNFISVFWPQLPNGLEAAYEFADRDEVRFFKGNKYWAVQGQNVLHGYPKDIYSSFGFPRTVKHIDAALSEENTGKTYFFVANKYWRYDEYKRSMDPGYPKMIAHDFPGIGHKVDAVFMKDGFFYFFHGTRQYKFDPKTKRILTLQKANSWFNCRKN
Experiment: Inhibition of degradation of radiolabeled rat skin type I collagen by semipurified human lung fibroblast collagenase
Outline: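 Collagenase from WI-38 human lung fibroblast culture supernatants, trypsin-activated and semipurified. Substrate was 3H- or 14C-acetylated rat skin type I collagen, 100 μg/tube, added at 4 °C. Enzyme amount set to degrade 70% of collagen. Compounds were dissolved in MeOH by sonication and serially diluted. Incubation ran 1000 min at 37 °C, then centrifugation at 4 °C. Supernatant soluble peptides were scintillation counted. IC50 is 50% inhibition; mean ± SEM.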

- IC50: 3.46 µM
Structure (SMILES): CNC(=O)[C@H](Cc1ccc(OC)cc1)NC(=O)[C@H](CC(C)C)N[C@@H](C)C(=O)O
